Biological target: Sodium-dependent dopamine transporter (Rattus norvegicus, UniProt P23977)

Sequences of proteins named here, by UniProt entry; tags and fusion partners are left off.
UniProt P23977, whole entry: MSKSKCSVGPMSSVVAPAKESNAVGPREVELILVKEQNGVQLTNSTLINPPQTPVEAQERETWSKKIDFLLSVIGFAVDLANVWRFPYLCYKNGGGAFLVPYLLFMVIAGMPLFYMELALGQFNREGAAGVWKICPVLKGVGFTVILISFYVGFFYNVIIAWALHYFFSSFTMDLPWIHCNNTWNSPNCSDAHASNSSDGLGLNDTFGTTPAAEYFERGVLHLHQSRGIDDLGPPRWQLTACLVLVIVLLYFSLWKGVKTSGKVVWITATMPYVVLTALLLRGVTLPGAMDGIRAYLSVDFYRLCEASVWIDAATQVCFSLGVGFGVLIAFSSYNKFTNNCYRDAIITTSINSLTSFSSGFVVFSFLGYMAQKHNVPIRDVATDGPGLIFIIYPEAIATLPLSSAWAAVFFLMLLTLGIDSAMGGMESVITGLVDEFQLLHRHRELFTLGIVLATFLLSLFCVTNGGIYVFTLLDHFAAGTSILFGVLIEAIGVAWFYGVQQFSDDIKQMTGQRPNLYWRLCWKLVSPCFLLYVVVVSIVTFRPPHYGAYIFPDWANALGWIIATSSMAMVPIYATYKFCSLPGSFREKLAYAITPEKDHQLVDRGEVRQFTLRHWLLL

Structure (SMILES)	Ki [nM]
Fc1ccc([C@@H]2CCNC[C@H]2COc2ccc3c(c2)OCO3)cc1 [PAROXETINE]	1000
CNCCC(Oc1ccccc1OC)c1ccccc1 (configuration not stated) [3-(2-methoxyphenoxy)-N-methyl-3-phenylpropan-1-amine]	1000

Reference: BindingDB's records for PubMed 9223589 (University of Tours, 1997)
